Some results are limits rather than exact numbers.

Amino acid sequences for entries named in this document (tags omitted).
UniProt Q9NUW8, whole entry: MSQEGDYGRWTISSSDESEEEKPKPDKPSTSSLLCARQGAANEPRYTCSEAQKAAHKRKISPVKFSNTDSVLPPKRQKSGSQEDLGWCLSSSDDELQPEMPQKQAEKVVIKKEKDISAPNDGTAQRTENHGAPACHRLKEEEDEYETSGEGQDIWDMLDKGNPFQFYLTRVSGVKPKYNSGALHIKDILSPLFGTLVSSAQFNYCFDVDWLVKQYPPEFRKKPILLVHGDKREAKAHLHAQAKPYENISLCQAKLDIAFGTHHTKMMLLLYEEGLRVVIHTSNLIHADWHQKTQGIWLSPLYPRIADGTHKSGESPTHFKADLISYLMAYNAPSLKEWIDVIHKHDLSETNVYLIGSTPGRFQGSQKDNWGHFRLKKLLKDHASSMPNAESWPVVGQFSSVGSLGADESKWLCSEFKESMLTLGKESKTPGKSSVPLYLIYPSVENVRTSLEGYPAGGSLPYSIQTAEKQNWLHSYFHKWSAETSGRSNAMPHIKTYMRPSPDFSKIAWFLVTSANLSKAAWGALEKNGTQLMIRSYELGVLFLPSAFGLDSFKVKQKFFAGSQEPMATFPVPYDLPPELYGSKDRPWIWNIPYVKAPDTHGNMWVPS

For this test, the target named is T1, FL-TDP1 (Homo sapiens, UniProt Q9NUW8).
T1 construct: either full-length TDP1 or Δ1-147TDP1 was diluted to 1×
The test can be described thus: FL-TDP1 FRET assay without TCEP (recifin A and analogues). It counts as biochemical. The following applies: IC50 μM (FL-TDP1 inhibitory activity), 1 nM FL-TDP1, 0.25 μM substrate, T=15 min, 1XPBS pH 7.4, 80 mM KCl, high-test concentration 20 μM. The method, then: For these FRET assays, TCEP was omitted from the reaction buffer. Peptides were evaluated for FL-TDP1 inhibitory activity using an 8-pt, 10^0.5 dilution series at a high-test concentration of 20 μM. RXN conditions: 1 nM FL-TDP1, 0.25 μM substrate, T=15 min.; rxn buffer (1XPBS pH 7.4, 80 mM KCl) (-TCEP). See FIGS. 21A and 21B and FIG. 22.

In general, IC50 refers to the concentration at which inhibition is half-maximal. A lower IC50 goes with higher potency. Consider `CC[C@H](C)[C@@H]1NC(=O)[C@H](Cc2ccc(O)cc2)NC(=O)[C@H](CC(N)=O)NC(=O)[C@H](CCC(N)=O)NC(=O)[C@@H]2CSSC[C@@H]3NC(=O)[C@H](CCC(=O)O)NC(=O)[C@H](Cc4c[nH]c5ccccc45)NC(=O)[C@@H]4CCCN4C(=O)[C@@H]4CCCN4C(=O)[C@@H]4CCCN4C(=O)[C@H](CCC(N)=O)NC(=O)[C@H](CC(C)C)NC(=O)[C@H](CCC(=O)O)NC(=O)[C@H](Cc4ccccc4)NC(=O)[C@H](CO)NC(=O)[C@H](Cc4ccc(O)cc4)NC(=O)[C@H](CO)NC(=O)CNC(=O)[C@H](CCCNC(=N)N)NC(=O)CNC(=O)[C@H](Cc4ccccc4)NC(=O)[C@H](CSSC[C@@H](C(=O)O)NC(=O)[C@H](CCC(N)=O)NC(=O)[C@H](Cc4ccc(O)cc4)NC3=O)NC(=O)[C@H](CSSC[C@H](NC(=O)[C@H](Cc3ccccc3)NC(=O)[C@H](C)NC(=O)[C@H](CCC(=O)O)NC(=O)[C@@H]3CCC(=O)N3)C(=O)N[C@@H](Cc3ccc(O)cc3)C(=O)N[C@@H](CO)C(=O)N[C@@H](CC(=O)O)C(=O)N[C@@H](CCCNC(=N)N)C(=O)N[C@@H](C)C(=O)N2)NC(=O)[C@H](CC(=O)O)NC(=O)[C@@H]2CCCN2C(=O)[C@H]([C@@H](C)CC)NC(=O)[C@H](CO)NC(=O)CNC1=O` [Ala10, [Ala10]recifin], for which the IC50 is above 10 µM.
